Legend:
Human CD79B-His protein [1] = molecular target: T1, Human CD79B-His protein (Homo sapiens, UniProt P40259); test: SPR assay of anti-CD79B antibodies; assay type: binding
T1 construct: His tag (HHHHHH) (C); made in house; host or cells: 293F cells
T1 sequence (P40259 29-159): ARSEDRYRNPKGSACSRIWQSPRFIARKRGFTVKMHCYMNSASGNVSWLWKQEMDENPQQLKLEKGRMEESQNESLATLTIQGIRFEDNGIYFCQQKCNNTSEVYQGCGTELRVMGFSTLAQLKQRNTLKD
Procedure: 7) Assay on anti-human CD79B mouse monoclonal antibodies by SPR The affinity of the anti-human CD79B antibody for its antigen human CD79B-His was assayed by surface plasmon resonance (SPR) technology. The antigen human CD79B-His protein was immobilized to a CM5 chip. The coupling level was set at 100 RU. The running buffer was HBS-EP+ (10 mM HEPES, 150 mM NaCl, 3 mM EDTA, 0.05% surfactant P20). The diluted antibodies were allowed to flow through the experimental and control channels at a flow rate of 30 μL/min for 3 min and dissociated for 5 min. Regeneration buffer (10 mM Glycine, pH 1.5) was then run at a flow rate of 30 μL/min for 30 s. Data were analyzed using Biacore 8K software.
(§1) The above antibodies were cloned, expressed and purified, and the humanized antibodies hAb015-10 and hAb017-10 with the best activity were selected by ELISA, FACS, SPR and other assays.

Human CD79B-His protein [2] = molecular target: T1, Human CD79B-His protein; test: Interspecific cross-reactivity, human CD79B; assay type: binding
Source text: as §1

human CD79B = molecular target: T2, human CD79B (Homo sapiens, UniProt P40259); test: Biacore affinity assay of CD79B antibodies and ADCs; design: His; purchased Sino Biological 29750-H08H; details: binding force to human CD79B protein
T2 sequence (P40259 29-159 limits assumed): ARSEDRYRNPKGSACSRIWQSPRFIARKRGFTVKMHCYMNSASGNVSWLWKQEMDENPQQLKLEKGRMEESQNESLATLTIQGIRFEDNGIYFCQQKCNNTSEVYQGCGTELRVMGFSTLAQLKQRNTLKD

DoHH2 cell [3] = test: Cell killing assay of humanized antibodies, DoHH2; assay type: cell-based, human
Source text: as §1

[4] = Thermal stability test (DSC, DLS); assay type: physicochemical
Source text: as §1

DoHH2 cell [5] = test: FACS assay of humanized anti-CD79B antibodies; assay type: binding, human
Source text: as §1

Raji cell = test: Cell killing assay of humanized antibodies, Raji; assay type: cell-based
Source text: as §1

Human CD79B-His protein [6] = molecular target: T1, Human CD79B-His protein; test: ELISA assay of humanized anti-CD79B antibodies; assay type: binding
Source text: as §1

WSU-DLCL2 cell = test: Cell killing assay of humanized antibodies, WSU-DLCL2; assay type: cell-based, human
Source text: as §1

Mouse CD79B-His protein = molecular target: T3, Mouse CD79B-His protein (Mus musculus, UniProt P15530); test: Interspecific cross-reactivity, mouse CD79B; assay type: binding
T3 construct: His
T3 sequence (P15530 26-228): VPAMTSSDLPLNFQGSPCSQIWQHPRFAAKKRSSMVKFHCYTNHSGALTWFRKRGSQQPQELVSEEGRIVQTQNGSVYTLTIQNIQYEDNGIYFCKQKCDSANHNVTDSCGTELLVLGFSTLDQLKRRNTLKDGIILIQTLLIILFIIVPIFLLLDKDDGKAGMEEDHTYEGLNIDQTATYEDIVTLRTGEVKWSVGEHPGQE
Source text: as §1

Monkey CD79B-His protein = test: Interspecific cross-reactivity, monkey CD79B; assay type: binding
Source text: as §1

[7] = tested on: DOHH-2 cells highly expressing human CD79B protein; test: Endocytosis of anti-CD79B antibodies in DOHH-2 cells; assay type: cell-based
Procedure: In order to determine whether the CD79B antibodies of the present disclosure can be endocytosed into cells with human CD79B after binding to human CD79B, a cell endocytosis experiment was performed with DOHH-2 cells (DSMZ, ACC 47) highly expressing human CD79B protein to assess the endocytosis ability of the antibodies.
The cells were collected by low temperature centrifugation at 4° C. for 5 min at 1000 rpm during the experiment. The cells were resuspended in 10-15 mL of FACS buffer pre-cooled on ice. The FACS buffer was composed of phosphate buffered saline (PBS), pH 7.4, with 2% fetal bovine serum (FBS). Throughout the experiment, FACS buffer was pre-cooled on ice. The cells were counted and centrifuged, and added to a 96-well plate at 300,000 cells/well. After centrifugation, the supernatant was discarded, and 12.5 μg/mL Fc blocking solution (BD, Cat No.: 564220) was added at 100 μL/well. Blocking was performed at room temperature for 10 min. Then, 20 μg/mL test CD79B antibody was added to the corresponding wells, and the plate was incubated at 4° C. for 1 h away from the light. The plate was washed twice with a pre-cooled PBS buffer to remove unbound antibodies. A complete cell culture medium (RPMI 1640 medium with 10% fetal bovine serum) was added, and the plate was incubated at 37° C. with 5% CO2 for 0 h, 1 h, 2 h and 4 h. After centrifugation, the supernatant was discarded, 2% PFA buffer solution was added at 100 μL/well to resuspend the cells, and the plate was left to stand for 10 min. Then, the plate was washed 3 times with an FACS buffer, and 100 μL of secondary antibody solution (fluorescent labeled goat anti-human secondary antibody: diluted in a 1:250 ratio, 2 μg/mL, Biolegend, Cat #409304) was added. The plate was incubated at 4° C. for half an hour away from the light. A pre-cooled PBS buffer was added, and the supernatant was discarded after centrifugation at 4° C., which were repeated three times. The cells were resuspended in an FACS buffer at 200 μL/well and detected using a flow cytometer (BD FACS Calibur).

B1: hAb015-10: humanized anti-CD79B antibody from mAb015; heavy chain SEQ ID NO: 28, light chain SEQ ID NO: 29 (antibody)
heavy: EVQLVQSGAEVKKPGSSVKVSCKASGSSFSSYGINWVKQAPGQGLEWIGEIFPRSGNTYYNEKFEGRATLTADKSTSTAYMELRSLRSEDTAVYYCAKGDLGDFDYWGQGTTVTVSSASTKGPSVFPLAPSSKSTSGGTAALGCLVKDYFPEPVTVSWNSGALTSGVHTFPAVLQSSGLYSLSSVVTVPSSSLGTQTYICNVNHKPSNTKVDKKV[letters of human IgG1 Fc not shown]
light: DFVMTQTPLSLPVTPGEPASISCRSSQSIVHSDGNTYFEWYLQKPGQSPKLLIYKVSNRFSGVPDRFSGSGSGTDFTLKISRVEAEDVGVYYCFQGSHVPWTFGGGTKVEIKRTVAAPSVFIFPPSDEQLKSGTASVVCLLNNFYPREAKVQWKVDNALQSGNSQESVTEQDSKDSTYSLSSTLTLSKADYEKHKVYACEVTHQGLSSPVTKSFNRGEC
modifications: Heavy chain of hAb015-10 humanized antibody; Light chain of hAb015-10 humanized antibody
Q: What does the source list for B1?
A: Kd (Human CD79B-His protein [1]; Human CD79B-His protein): 1.5 nM; affinity and related functions compared with the mouse monoclonal antibodies (Human CD79B-His protein [1]; by ELISA, FACS, SPR and other assays): retained similar affinity and related functions to the mouse monoclonal antibodies; Interspecific cross-reactivity (Human CD79B-His protein [2]): Yes; EC50 (human CD79B): 0.38 nM; IC50 (DoHH2 cell [3]): 0.004 nM; Thermal stability test DLS (Tagg, ° C.) ([4]; DLS): 62 °C; Thermal stability test DSC (Tm, ° C.) ([4]; DSC): 60 °C; EC50 (DoHH2 cell [5]): 0.4 nM; IC50 (Raji cell): > 100 nM; EC50 (Human CD79B-His protein [6]): 0.05 nM; IC50 (WSU-DLCL2 cell): 0.013 nM; Interspecific cross-reactivity (Mouse CD79B-His protein): No; Interspecific cross-reactivity (Monkey CD79B-His protein): No; endocytosis by DOHH-2 cells at 4° C. ([7]; 20 μg/mL antibody, incubation at 4° C.): cannot be endocytosed by DOHH-2 cells; endocytosis by DOHH-2 cells at 37° C. after 1 h ([7]; 20 μg/mL antibody, incubation at 37° C., 1 h): most of the antibodies are already endocytosed by DOHH-2 cells; endocytosis, overall judgement ([7]; DOHH-2 cells): good endocytosis; time at which antibody endocytosis reaches a maximum ([7]; incubation at 37° C.): 4 h
